The entries are a selection whose mix differs from that of the whole data set. Active and inactive are the calls of the source.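 Rule for the calls: active = inhibition above the screen-wide average of all tested compounds plus 3 SD (cut at about 25% in these data); inactive = the rest.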

Sequences of proteins named here, by UniProt entry; tags and fusion partners are left off. A change or cut given only in a name is not applied to a line headed by its entry.
UniProt Q15102: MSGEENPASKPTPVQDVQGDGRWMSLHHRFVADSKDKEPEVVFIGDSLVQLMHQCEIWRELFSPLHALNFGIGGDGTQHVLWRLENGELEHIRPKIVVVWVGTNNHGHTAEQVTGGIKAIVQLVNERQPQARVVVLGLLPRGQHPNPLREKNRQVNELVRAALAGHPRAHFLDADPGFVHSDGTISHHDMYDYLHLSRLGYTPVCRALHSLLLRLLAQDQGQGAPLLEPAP

A word on the inhibition: it is the relative decrease from the control value, in per cent.

For the test, the target named is Platelet-activating factor acetylhydrolase IB subunit alpha1 (Homo sapiens) (UniProt Q15102). Put plainly: inhibition of PAF acetylhydrolase 1B subunit 3 – biochemical, fluorescence polarization, human, primary screen (AID 492972).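 Note: 0% = enzyme with DMSO only and 100% = wells lacking PAFAH1B3 protein.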 To be noted: recombinant PAFAH1B3, FP-rhodamine probe, at 3.39 µM, hits give high values. In general terms: Fluorescence polarisation rises when a labelled molecule tumbles more slowly, as on binding a larger partner.
Turning to `O=P(Nc1nccs1)(c1ccccc1)c1nc2ccccc2s1` (centres undefined), the inhibition is inactive: 1.64%.
In the case of `O=P(Nc1nccs1)(Oc1ccccc1)Oc1ccccc1` it was inactive: 0.85%; in that of `CCOP1(=S)c2c(C)nn(CCC#N)c2N=C(c2ccccc2F)N1C` (centres undefined), inactive: 3.26%; in that of `CS(=O)(=O)c1cc([N+](=O)[O-])c2no[n+]([O-])c2c1`, inactive: 11.6%.
In the case of `Nc1ccccc1[As](=O)(O)c1ccccc1` it was inactive: 10.6%; in that of `O=C(O)COc1ccc([As](=O)(O)O)cc1[N+](=O)[O-]`, inactive: 3.88%.
In the case of `CCOP1(=S)c2c(C)nn(CCC#N)c2N=C(c2ccc(F)cc2)N1C` (centres undefined) it was inactive: 0.86%; in that of `CN(C(=O)Cc1ccccc1)[C@@H]1CC[C@]2(CCCO2)C[C@H]1N1CCCC1`, inactive: 2.77%.
For `N#CCCN(C(=O)COC(=O)C(O)(c1ccccc1)c1ccccc1)c1ccc(F)cc1`, the inhibition was inactive: 2.36%.
In the case of `CN(C(=O)Cc1ccc(Cl)c(Cl)c1)[C@H]1CC[C@@]2(CCCO2)C[C@@H]1N1CCCC1` it was inactive: 15.7%; in that of `CN(C)C(=O)c1cc([N+](=O)[O-])cc2c1-c1c(cc([N+](=O)[O-])cc1[N+](=O)[O-])C2=O`, active: 56.2%; in that of `O=[N+]([O-])c1ccc2c(c1)nnn2O`, inactive: 8.63%.
In the case of `O=C(OC1CN2CCC1CC2)c1ccc(Cl)cc1` (centres undefined) it was inactive: 0.11%; in that of `CS(=O)(=O)c1ccc(Cl)c(NC(=O)COC(=O)C(O)(c2ccccc2)c2ccccc2)c1`, inactive: -6.21%; in that of `COc1cc(C(=O)NCC2(N3CCOCC3)CCCCC2)cc(Cl)c1OC(C)C`, inactive: -2.96%.
In the case of `O=[As](O)(O)c1cccnc1` it was inactive: -1.33%.
As to `O=[As](O)(c1cccc(O)c1)c1cccc(O)c1`, the inhibition is inactive: 5.94%.
Consider `Cc1cccc(OCC(=O)OC2CN3CCC2CC3)c1` (centres undefined), for which the inhibition was inactive: -6.47%.
In the case of `Nc1cccc2c([As](=O)(O)O)cccc12` it was inactive: 17.3%; in that of `Cc1ccc(NCCc2c([N+](=O)[O-])cc([N+](=O)[O-])cc2[N+](=O)[O-])cc1`, inactive: 23.4%.
In the case of `CCCOP(=S)(Nc1nc(N)cc(=O)[nH]1)OCCC` it was inactive: 7.97%.
In the case of `CCOP(=O)(Nc1cccc2ccccc12)OCC` it was inactive: 3.03%.
On to `COc1cc(C2NCCC3(OCCO3)C2(C)C)cc(OC)c1OC` (centres undefined), for which the inhibition is inactive: 6.31%.
In the case of `CCOP(=O)(NC(=NC(C)c1ccccc1)NC(C)c1ccccc1)OCC` (centres undefined), the inhibition was inactive: 5.43%.
In the case of `O=P1(Nc2ccccn2)COc2ccccc2OC1` it was inactive: -0.16%; in that of `CCC1=CC2Cc3nc4ccc(Cl)cc4c(N)c3C(C1)C2` (centres undefined), inactive: 4.2%.
In the case of `CCOP(=O)(Nc1ccc(C)cn1)OCC` it was inactive: 0.25%; in that of `CC(C)(C)C(=O)NC(Sc1ncccn1)C(Cl)(Cl)Cl` (centres undefined), inactive: 5.5%.
In the case of `Clc1n[nH]nc1-c1nn[nH][15n]1` it was inactive: 4.8%.
As for `COc1ccccc1CNC(=O)COC(=O)C(O)(c1ccccc1)c1ccccc1`, the inhibition is inactive: -1.08%.
Take `CC(C)/C=N\N=C(\N)N[N+](=O)[O-]`: the inhibition is inactive: 7.3%.
In the case of `CN(C(=O)Cc1ccc(Cl)c(Cl)c1)[C@@H]1CCCC[C@H]1N1CCCC1` it was inactive: 3.85%; in that of `CC1(CBr)Cn2c(nc3ccccc3c2=O)S1` (centres undefined), inactive: 5.07%; in that of `CC1CCC(C(C)C)C(OP(=O)(Nc2ccccn2)c2ccccc2)C1` (centres undefined), inactive: 1.18%.
In the case of `Cc1ccc(C(=O)OC2CN3CCC2CC3)cc1` (centres undefined), the inhibition is inactive: 8.23%.
In the case of `Cc1nn(-c2ccccc2)c2c1P(=O)(N1CCOCC1)N(C)C(c1ccccc1)=N2` (centres undefined) it was inactive: 10.8%; in that of `CN(C)C1(CNC(=O)c2ccc(S(C)(=O)=O)cc2)CCCCC1`, inactive: 2.17%; in that of `CCCC1OP(=O)(Nc2ccccc2)OCC1CC` (centres undefined), inactive: 6.08%.
In the case of `O=C(/C=C/c1ccccc1)OC1CN2CCC1CC2` (centres undefined) it was inactive: 2.22%.
In the case of `O=P1(Nc2ncccn2)COc2ccccc2OC1` it was inactive: 0.63%.
For the compound `Nc1cccc([As](=O)(O)c2ccccc2)c1`, the inhibition is inactive: 2.81%.
In the case of `O=P1(Nc2ccc(Br)cn2)COc2ccccc2OC1` it was inactive: 3.47%; in that of `NS(=O)(=O)c1cccc(NC(=O)COC(=O)C(O)(c2ccccc2)c2ccccc2)c1`, inactive: 4.44%.
In the case of `O=[As](O)(c1cccs1)c1cccs1` it was inactive: -2.48%.
Regarding `Cc1ccc(OCC(=O)OC2CN3CCC2CC3)cc1` (centres undefined), the inhibition was inactive: 4.02%.
Turning to `CCOC(=O)Nc1ccc([As](=O)(O)O)c(O)c1`, the inhibition is inactive: 8.2%.
In the case of `CC1CCNP(=O)(N(CCCl)CCCl)O1` (centres undefined) it was inactive: 3.82%.
In the case of `Cc1cc(SC(NC(=O)c2ccccc2)C(Cl)(Cl)Cl)nc(C(C)C)n1` (centres undefined), the inhibition is inactive: -0.86%.
In the case of `CCCCOc1ccc(C(=O)NCC2(N3CCCCC3)CCCCC2)cc1OC` it was inactive: -8.88%.
In the case of `CCOC(=O)Nc1cccc([As](=O)(O)O)c1` it was inactive: -1.51%; in that of `O=P(Nc1ccccn1)(c1cccc2ccccc12)c1cccc2ccccc12`, inactive: 2.59%.
In the case of `Cc1cc(SC(NC=O)C(Cl)(Cl)Cl)ncn1` (centres undefined) it was inactive: 0.31%.
Turning to `O=[N+]([O-])c1ccc(Nc2ccc(Oc3ccc([N+](=O)[O-])cc3[N+](=O)[O-])cc2)c([N+](=O)[O-])c1`, the inhibition was inactive: 5.98%.
In the case of `COP1(=S)c2c(C)nn(CCC#N)c2N=C(c2ccc(F)cc2)N1C` (centres undefined) it was inactive: -0.65%; in that of `O=C(Nc1ccncc1[N+](=O)[O-])c1ccc([N+](=O)[O-])cc1[N+](=O)[O-]`, inactive: 2.04%; in that of `O=C(COc1ccccc1)OC1CN2CCC1CC2` (centres undefined), inactive: 12.2%.
In the case of `O=C(OC1CN2CCC1CC2)c1cccc([N+](=O)[O-])c1` (centres undefined) it was inactive: 1.59%; in that of `CCOC(=O)c1ccc(NC(=O)C(C)(CCl)SC)cc1` (centres undefined), inactive: -0.49%; in that of `CCC(C)N(CC(C)C)C(=S)SC(NC(C)=O)C(Cl)(Cl)Cl` (centres undefined), inactive: 7.41%.
In the case of `Cc1c2c(nc3ccccc13)SC(C(Cl)Cl)C2` (centres undefined) it was inactive: 2.68%; in that of `Cc1cc(=O)[nH]c(N[N+](=O)[O-])n1`, inactive: -1.8%.
On to `O=C(OC1CN2CCC1CC2)C12CC3CC(CC(C3)C1)C2` (centres undefined), for which the inhibition is inactive: 0.1%.
In the case of `O=P1(N(CCCl)CCCl)Nc2ccccc2N1` it was inactive: 6.18%; in that of `O=P1(N(CCCl)CCCl)OCCCN1CCCl` (centres undefined), inactive: 4.51%.

These data come from PubChem BioAssay AID492972 (The Scripps Research Institute Molecular Screening Center, 2010).
